Tests used:
ERK = experiment: Western blot, ERK activation (pERK) in glioma cells; settings: U87EGFRwt cells, serum starved; cetuximab overnight; EGF 50 ng/ml 15 min
EGFR = experiment: Western blot, EGFR activation in U87EGFRwt cells; type: cell-based, human; settings: serum starved, cetuximab overnight, EGF 50 ng/ml 15 min
Experimental: Western blot analysis was performed according to standard protocols.
Reagents: Recombinant human TNF and EGF were obtained from Peprotech (Rocky Hill, NJ). Erlotinib and XL765 was purchased from SelleckChem (Houston, TX). Afatinib was bought from AstaTech, Inc. (Bristol, PA). Axl inhibitor R428, ERK inhibitor (U0126) and thalidomide were from Cayman Chemical (Ann Arbor, MI). Enbrel (Etanercept) was purchased from Mckesson Medical y (San Francisco CA). The JNK inhibitor SP600125, p38 Inhibitor SB203580, and NF-αB inhibitor BMS-345541 were obtained from EMD Millipore (Billerica, MA). Necrostatin-1 was obtained from Fisher Scientific (Pittsburgh, PA). LPS was purchased from Sigma (St. Louis, MO). Cetuximab was provided by Imclone and used at a concentration of 10 μg/ml overnight.

**Q.** With “Cetuximab: blocks ligand binding to the EGFR; provided by Imclone” as the substance, how does the “Basal ERK activation” value (ERK) read?
**A.** could be inhibited

**Q.** What about the “Basal EGFR activation” value (EGFR) of the same substance?
**A.** could be inhibited
